Measured values: patent US12139488B2, “Pyrido[3,2-d]pyrimidine compounds uses thereof for treating a proliferative disease” (Universite de Montreal, priority 2021, dated 2024)
Like-named read-outs stand apart in the source and are kept apart here.

Amino acid sequences for entries named in this document (tags omitted).
UniProt P15056, whole entry: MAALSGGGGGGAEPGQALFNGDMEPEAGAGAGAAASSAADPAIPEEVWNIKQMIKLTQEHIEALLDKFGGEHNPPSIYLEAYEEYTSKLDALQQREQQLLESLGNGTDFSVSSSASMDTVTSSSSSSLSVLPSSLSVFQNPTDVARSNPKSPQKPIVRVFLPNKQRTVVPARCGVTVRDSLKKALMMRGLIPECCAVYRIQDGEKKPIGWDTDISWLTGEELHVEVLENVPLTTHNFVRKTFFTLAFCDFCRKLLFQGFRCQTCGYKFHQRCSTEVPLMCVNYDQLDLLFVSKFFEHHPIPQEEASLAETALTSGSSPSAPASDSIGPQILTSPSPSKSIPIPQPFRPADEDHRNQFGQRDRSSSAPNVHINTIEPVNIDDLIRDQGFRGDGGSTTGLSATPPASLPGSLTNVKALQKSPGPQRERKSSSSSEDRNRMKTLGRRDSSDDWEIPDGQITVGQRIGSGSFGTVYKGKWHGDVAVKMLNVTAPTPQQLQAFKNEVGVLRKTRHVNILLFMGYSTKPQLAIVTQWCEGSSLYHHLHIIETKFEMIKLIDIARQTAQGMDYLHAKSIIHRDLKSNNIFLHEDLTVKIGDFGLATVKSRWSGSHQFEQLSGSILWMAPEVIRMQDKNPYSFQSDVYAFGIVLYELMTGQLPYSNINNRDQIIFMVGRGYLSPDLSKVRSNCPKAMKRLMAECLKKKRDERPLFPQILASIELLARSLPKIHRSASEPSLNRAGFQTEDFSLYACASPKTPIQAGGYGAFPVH
UniProt P04049, whole entry: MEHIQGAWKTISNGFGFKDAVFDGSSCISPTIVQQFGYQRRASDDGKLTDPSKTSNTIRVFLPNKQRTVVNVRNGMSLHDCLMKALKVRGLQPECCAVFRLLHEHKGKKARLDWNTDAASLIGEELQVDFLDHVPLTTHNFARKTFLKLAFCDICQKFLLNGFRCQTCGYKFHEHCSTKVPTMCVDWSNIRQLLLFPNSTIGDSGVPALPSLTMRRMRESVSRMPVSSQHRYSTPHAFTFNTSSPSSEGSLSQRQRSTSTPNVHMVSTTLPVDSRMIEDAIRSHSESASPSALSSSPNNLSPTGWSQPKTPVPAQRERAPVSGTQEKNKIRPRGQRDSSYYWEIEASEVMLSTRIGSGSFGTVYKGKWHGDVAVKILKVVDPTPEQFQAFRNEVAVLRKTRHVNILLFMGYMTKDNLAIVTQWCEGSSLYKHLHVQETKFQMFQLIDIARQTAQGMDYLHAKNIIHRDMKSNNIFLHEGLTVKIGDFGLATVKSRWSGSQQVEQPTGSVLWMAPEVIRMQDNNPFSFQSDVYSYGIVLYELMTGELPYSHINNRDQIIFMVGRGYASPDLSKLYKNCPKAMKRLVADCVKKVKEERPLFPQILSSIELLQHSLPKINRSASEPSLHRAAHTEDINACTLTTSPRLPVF

Tests used:
BRAF = BRAF (Homo sapiens (Human), UniProt P15056); experiment: BRAF kinase activity assay (ADP-Glo)
CRAF = CRAF (Homo sapiens, UniProt P04049); experiment: CRAF kinase activity assay (ADP-Glo)
[1] = system: pERK in HCT-116 cells (KRAS G13D); experiment: Phospho-ERK inhibition (AlphaLISA SureFire Ultra p-ERK 1/2), HCT116; conditions: for HCT116 pERK % Ymin (lowest value of the IC50 curve): Ymin above −20% = minimal or no paradoxical activation
Method in brief: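 pERK1/2 (Thr202/Tyr204) AlphaLISA, 1 h cpd, 10 conc. 10 μM→0.33 nM, 0.5% DMSO, RPMI-1640 + 5% FBS. Trametinib = 100%, DMSO = 0%. IC50, 4-param fit.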

[2] = read-out: Kinase IC50 (nM), BRAF biochemical kinase assay, BRAF
[3] = read-out: Kinase IC50 (nM), CRAF biochemical kinase assay, CRAF
[4] = read-out: HCT116 pERK IC50, HCT116 cells
[5] = read-out: Kinase IC50 (nM) BRAF
[6] = read-out: Kinase IC50 (nM) CRAF
[7] = read-out: HCT116 pERK IC50, HCT116 cells, class symbol before the bracket

| SMILES | IC50 (BRAF; [2]) [nM] | IC50 (CRAF; [3]) [nM] | HCT116 pERK % Ymin (lowest value of the IC50 curve) ([1]; HCT116 cells) [%] | IC50 [1, 4] [µM] | IC50 (BRAF; [5]) [nM] | IC50 (CRAF; [6]) [nM] | IC50 [1, 7] [µM] | HCT116 pERK Ymin % ([1]; HCT116 cells, Ymin in brackets) [%] | further results |
| --- | --- | --- | --- | --- | --- | --- | --- | --- | --- |
| O=S(=O)(Nc1ccc(F)c(Nc2ncnc3ccc(-n4nnc5c(N6C7CCC6CC(CCO)C7)cccc54)nc23)c1F)c1cccc(Cl)c1Cl (stereo not shown) | < 1 | 10 to 50 | 4 | < 0.5 | – | – | – | – | – |
| O=C(c1cn(-c2ccc3ncnc(Nc4c(F)ccc(NS(=O)(=O)c5cccc(Cl)c5Cl)c4F)c3n2)c2ccccc12)N1CCNCC1 | – | – | – | – | – | – | – | – | IC50 (BRAF; read-out: Kinase IC50 (nM) BRAF, tested form: formic acid salt): < 1 nM; IC50 (CRAF; read-out: Kinase IC50 (nM) CRAF, tested form: formic acid salt): < 10 nM; HCT116 pERK Ymin % ([1]; HCT116 cells, Ymin in brackets, tested form: formic acid salt): 1.4%; IC50 ([1]; read-out: HCT116 pERK IC50, HCT116 cells, class symbol before the bracket, tested form: formic acid salt): 0.5 to 1 µM |
| Cc1c(Cl)cccc1S(=O)(=O)Nc1ccc(F)c(Nc2ncnc3ccc(-n4nc(C(=O)N5CC6CC5CN6)c5ccccc54)nc23)c1F (stereo not shown) | – | – | – | – | – | – | – | – | IC50 (BRAF; read-out: Kinase IC50 (nM) BRAF, tested form: formate): < 1 nM; IC50 (CRAF; read-out: Kinase IC50 (nM) CRAF, tested form: formate): > 50 nM; HCT116 pERK Ymin % ([1]; HCT116 cells, Ymin in brackets, tested form: formate): −10%; IC50 ([1]; read-out: HCT116 pERK IC50, HCT116 cells, class symbol before the bracket, tested form: formate): < 0.5 µM |
| Nc1cccc2c1ncn2-c1ccc2ncnc(Nc3cccc(NS(=O)(=O)c4cccc(Cl)c4Cl)c3F)c2n1 | – | – | – | – | – | – | – | – | IC50 (BRAF; read-out: Kinase IC50 (nM) BRAF, Table 5): 1 to 10 nM; IC50 (CRAF; read-out: Kinase IC50 (nM) CRAF, Table 5): 10 to 50 nM; HCT116 pERK Ymin % ([1]; lowest value of the curve, HCT116, Table 5): −2%; IC50 ([1]; read-out: HCT116 pERK IC50, HCT116 cells, Table 5): < 0.5 µM |
| O=S(=O)(Nc1ccc(F)c(Nc2ncnc3ccc(-n4cnc5c(N6CC(F)(F)C6)cccc54)nc23)c1F)c1cccc(Cl)c1Cl | > 10 | 10 to 50 | −6 | 0.5 to 1 | – | – | – | – | – |
| O=S(=O)(Nc1ccc(F)c(Nc2ncnc3ccc(-c4cnco4)nc23)c1F)c1cccc(Cl)c1Cl | 1 to 10 | 10 to 50 | −6 | 1 to 10 | – | – | – | – | – |
| O=S(=O)(Nc1ccc(F)c(Nc2ncnc3ccc(-n4cnc5ccccc54)nc23)c1F)c1scc(Cl)c1Cl | – | – | – | – | < 1 | < 10 | – | – | HCT116 pERK Ymin % ([1]; lowest % inhibition value of the IC50 curve, HCT116): −3%; IC50 ([1]; read-out: HCT116 pERK IC50 in μM, HCT116 cells, 1 h treatment): < 0.5 µM |
| N#CC1CCN(c2cccc3c2nnn3-c2ccc3ncnc(Nc4c(F)ccc(NS(=O)(=O)c5cccc(Cl)c5Cl)c4F)c3n2)CC1 | 1 to 10 | 10 to 50 | −2 | < 0.5 | – | – | – | – | – |
| O=S(=O)(Nc1ccc(F)c(Nc2ncnc3ccc(-n4cnc5c(N6CCOC[C@@H]6CO)cccc54)nc23)c1F)c1cccc(Cl)c1Cl | < 1 | < 10 | −6 | < 0.5 | – | – | – | – | – |
| CC1(O)CCCN(c2cccc3c2ncn3-c2ccc3ncnc(Nc4c(F)ccc(NS(=O)(=O)c5cccc(Cl)c5Cl)c4F)c3n2)CC1 (stereo not shown) | > 10 | > 50 | −4 | < 0.5 | – | – | – | – | – |
| COc1ccc(S(=O)(=O)Nc2ccc(F)c(Nc3ncnc4ccc(-n5ccnn5)nc34)c2F)c(C)c1 | – | – | – | – | > 10 | > 50 | 1 to 10 | 3 | – |
| C[C@@H]1COC[C@H](C)N1c1cccc2c1ncn2-c1ccc2ncnc(Nc3c(F)ccc(NS(=O)(=O)c4cccc(Cl)c4Cl)c3F)c2n1 (relative stereo) | 1 to 10 | > 50 | 0 | < 0.5 | – | – | – | – | – |
| CC(C)C1(O)CCN(c2cccc3c2ncn3-c2ccc3ncnc(Nc4c(F)ccc(NS(=O)(=O)c5cccc(Cl)c5Cl)c4F)c3n2)CC1 | 1 to 10 | < 10 | −8 | < 0.5 | – | – | – | – | – |
| CC(c1cccc2c1ncn2-c1ccc2ncnc(Nc3c(F)ccc(NS(=O)(=O)c4ccccc4Cl)c3F)c2n1)N(C)C (stereo not shown) | – | – | – | – | – | – | – | – | IC50 (BRAF; read-out: Kinase IC50 (nM) BRAF, tested form: TFA): 1 to 10 nM; IC50 (CRAF; read-out: Kinase IC50 (nM) CRAF, tested form: TFA): 10 to 50 nM; HCT116 pERK Ymin % ([1]; HCT116 cells, Ymin in brackets, tested form: TFA): −3%; IC50 ([1]; read-out: HCT116 pERK IC50, HCT116 cells, class symbol before the bracket, tested form: TFA): 1 to 10 µM |
| Cn1cnc(-c2ccc3ncnc(Nc4c(F)ccc(NS(=O)(=O)c5cccc(Cl)c5Cl)c4F)c3n2)c1 | > 10 | > 50 | 4 | 1 to 10 | – | – | – | – | – |
| O=S(=O)(Nc1ccc(F)c(Nc2ncnc3ccc(-n4cnc5c4CCCC5)nc23)c1F)c1ccccc1Cl | – | – | – | – | < 1 | < 10 | 0.5 to 1 | −2.6 | – |
| Cc1ccc(-c2ccc3ncnc(Nc4c(F)ccc(NS(=O)(=O)c5cccc(Cl)c5Cl)c4F)c3n2)o1 | > 10 | 10 to 50 | −14 | 1 to 10 | – | – | – | – | – |

Second part, led by results:

| IC50 (BRAF; [2]) [nM] | IC50 (CRAF; [3]) [nM] | HCT116 pERK % Ymin (lowest value of the IC50 curve) ([1]; HCT116 cells) [%] | IC50 [1, 4] [µM] | IC50 (BRAF; [5]) [nM] | IC50 (CRAF; [6]) [nM] | IC50 [1, 7] [µM] | SMILES | HCT116 pERK Ymin % ([1]; HCT116 cells, Ymin in brackets) [%] | further results |
| --- | --- | --- | --- | --- | --- | --- | --- | --- | --- |
| < 1 | < 10 | −17 | < 0.5 | – | – | – | CS(=O)(=O)C1CCN(c2cccc3c2ncn3-c2ccc3ncnc(Nc4c(F)ccc(NS(=O)(=O)c5cccc(Cl)c5Cl)c4F)c3n2)CC1 | – | – |
| – | – | – | – | 1 to 10 | < 10 | < 0.5 | Cc1c(Cl)cccc1S(=O)(=O)Nc1ccc(F)c(Nc2ncnc3ccc(-n4cc(S(=O)(=O)N5CCN(C)CC5)c5ccccc54)nc23)c1F | −5.8 | – |
| – | – | – | – | > 10 | 10 to 50 | 0.5 to 1 | COc1ccc(S(=O)(=O)Nc2ccc(F)c(Nc3ncnc4ccc(-n5nnc6ccccc65)nc34)c2F)c(C)c1 | 4.3 | – |
| – | – | – | – | < 1 | 10 to 50 | < 0.5 | Cc1c(F)cccc1S(=O)(=O)Nc1ccc(F)c(Nc2ncnc3ccc(-n4nc(C(=O)NCCO)c5ccccc54)nc23)c1F | 3.6 | – |
| – | – | – | – | < 1 | 10 to 50 | < 0.5 | Cc1c(F)cccc1S(=O)(=O)Nc1ccc(F)c(Nc2ncnc3ccc(-n4nc(C(=O)N(C)Cc5ccncc5)c5ccccc54)nc23)c1F | 3.2 | – |
| – | – | – | – | < 1 | 10 to 50 | 1 to 10 | Cc1c(F)cccc1S(=O)(=O)Nc1ccc(F)c(Nc2ncnc3ccc(-n4nc(C(=O)N5CC6(CCNCC6)C5)c5ccccc54)nc23)c1F | −1.2 | – |
| < 1 | < 10 | −10 | < 0.5 | – | – | – | CC(=O)N1CCN(c2cccc3c2ncn3-c2ccc3ncnc(Nc4c(F)ccc(NS(=O)(=O)c5cccc(Cl)c5Cl)c4F)c3n2)CC1 | – | – |
| 1 to 10 | 10 to 50 | −6 | < 0.5 | – | – | – | COC1CCN(c2cccc3c2ncn3-c2ccc3ncnc(Nc4c(F)ccc(NS(=O)(=O)c5cccc(Cl)c5C)c4F)c3n2)CC1 | – | – |
| – | – | – | – | < 1 | < 10 | < 0.5 | Cc1c(Cl)cccc1S(=O)(=O)Nc1ccc(F)c(Nc2ncnc3ccc(-n4nc(C(=O)N5CCN(CCO)CC5)c5ccccc54)nc23)c1F | −5.5 | YMIN of pERK IC50 dose response curve (paradoxical induction of pERK signaling) ([1]; RAS-mutant HCT116 cells, FIG. 1): > −20% |
| – | – | – | – | 1 to 10 | > 50 | 1 to 10 | Cc1c(Cl)cccc1S(=O)(=O)Nc1ccc(F)c(Nc2ncnc3ccc(-n4cnc(C(=O)N5CCOCC5)n4)nc23)c1F | 11 | – |
| 1 to 10 | < 10 | −7 | < 0.5 | – | – | – | O=S(=O)(Nc1ccc(F)c(Nc2ncnc3ccc(-n4cnc5c(N6CCC(CO)CC6)cccc54)nc23)c1F)c1cccc(Cl)c1Cl | – | – |
| – | – | – | – | < 1 | < 10 | < 0.5 | COCCN(C)C(=O)c1nn(-c2ccc3ncnc(Nc4c(F)ccc(NS(=O)(=O)c5cccc(F)c5C)c4F)c3n2)c2ccccc12 | −1.2 | – |
| – | – | – | – | < 1 | 10 to 50 | < 0.5 | Cc1c(F)cccc1S(=O)(=O)Nc1ccc(F)c(Nc2ncnc3ccc(-n4nc(C(=O)N5CCC(O)CC5)c5ccccc54)nc23)c1F | −4.8 | – |
| – | – | – | – | 1 to 10 | 10 to 50 | < 0.5 | Cc1c(Cl)cccc1S(=O)(=O)Nc1ccc(F)c(Nc2ncnc3ccc(-n4nc(C(=O)N5CC[C@@H](CO)C5)c5ccccc54)nc23)c1F | −1.1 | – |
| – | – | – | – | 1 to 10 | > 50 | 1 to 10 | Cc1c(F)cccc1S(=O)(=O)Nc1ccc(F)c(Nc2ncnc3ccc(-n4nc(C(=O)N5CCC6(CNC6)C5)c5ccccc54)nc23)c1F | −2.7 | – |
| – | – | – | – | < 1 | 10 to 50 | < 0.5 | Cc1c(F)cccc1S(=O)(=O)Nc1ccc(F)c(Nc2ncnc3ccc(-n4nc(C(=O)N(C)CCO)c5ccccc54)nc23)c1F | −6.4 | – |
| 1 to 10 | 10 to 50 | 2 | < 0.5 | – | – | – | Cc1c(Cl)cccc1S(=O)(=O)Nc1ccc(F)c(Nc2ncnc3ccc(-n4cnc5c(N6CCC(C)(O)CC6)cccc54)nc23)c1F | – | – |
| – | – | – | – | < 1 | 10 to 50 | < 0.5 | CN1CCN(S(=O)(=O)c2cn(-c3ccc4ncnc(Nc5c(F)ccc(NS(=O)(=O)c6ccccc6Cl)c5F)c4n3)c3ccccc23)CC1 | −10 | – |
| – | – | – | – | < 1 | < 10 | < 0.5 | COCCCN(C)C(=O)c1nn(-c2ccc3ncnc(Nc4c(F)ccc(NS(=O)(=O)c5cccc(F)c5C)c4F)c3n2)c2ccccc12 | −4.9 | – |
